{"sequences": {"note": "Sequences of proteins named here, by UniProt entry; tags and fusion partners are left off.", "UniProt P58154, whole entry": "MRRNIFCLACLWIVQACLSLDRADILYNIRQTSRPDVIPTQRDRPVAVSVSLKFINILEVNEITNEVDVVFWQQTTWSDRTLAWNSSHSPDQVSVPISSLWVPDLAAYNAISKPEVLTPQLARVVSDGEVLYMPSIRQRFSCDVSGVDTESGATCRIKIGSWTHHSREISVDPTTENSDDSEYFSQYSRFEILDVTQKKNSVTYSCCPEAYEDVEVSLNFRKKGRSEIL"}, "source": "BindingDB's records for doi:10.1074/jbc.M111.292243", "about": "(University of Copenhagen, 2012)", "biological_target": "Acetylcholine-binding protein (Lymnaea stagnalis, UniProt P58154)", "test": "Radioligand Competition Assay"}
{"compound": "CN1CCC[C@H]1c1cccnc1", "note": "[(R,S)-nicotine]", "values": [{"measurement": "Ki", "value": 83, "unit": "nM"}]}
